From ChEMBL document CHEMBL5053511, “Discovery of a Novel BCL-XL PROTAC Degrader with Enhanced BCL-2 Inhibition” (J Med Chem, 2021)

Chains of the proteins cited; added tags and fusions are not shown.
UniProt P10415, whole entry: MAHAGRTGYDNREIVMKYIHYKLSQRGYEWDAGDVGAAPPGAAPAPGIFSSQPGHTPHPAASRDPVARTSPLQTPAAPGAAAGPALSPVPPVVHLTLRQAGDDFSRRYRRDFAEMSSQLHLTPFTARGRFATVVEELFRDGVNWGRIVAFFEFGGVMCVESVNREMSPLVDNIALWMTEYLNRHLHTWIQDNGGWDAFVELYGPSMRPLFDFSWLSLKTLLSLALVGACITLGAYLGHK

Target: Apoptosis regulator Bcl-2 (Homo sapiens, UniProt P10415)
Assay: Displacement of biotin-tagged MRPEPATIAQELRRIGDEFNA from C-terminal His-tagged human BCL-2 (1` to 211 residues) expressed in Escherichia coli measured after 2 hrs by AlphaScreen assay
Method in brief: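 AlphaScreen displacement, run with or without VCB. Biotin-Bim (80 nM, for BCL-2) or biotin-Bad (16 nM, for BCL-XL) was combined with serially diluted compound and 6×His protein in 25 mM HEPES pH 7.5, 100 mM NaCl, 0.1% BSA, 0.005% Tween 20. Anti-His acceptor beads were added for 1 h at room temperature, then streptavidin donor beads for 30 min in the dark. Ki was fitted by one-site competitive model from peptide concentration and measured Kd values; reported as mean ± SD of at least two experiments in triplicate.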

- Kd: 0.65 nM
Compound: CC1(C)CCC(c2ccc(Cl)cc2)=C(CN2CCN(c3ccc(C(=O)NS(=O)(=O)c4ccc(N[C@H](CCN5CCOCC5)CSc5ccccc5)c(S(=O)(=O)C(F)(F)F)c4)cc3)CC2)C1 [NAVITOCLAX]
